{"source": "paper PMC6016778", "about": "(Proceedings of the National Academy of Sciences of the …, 2018)", "target": "Atg14L coiled-coil region (UniProt Q6ZNE5 88-178)", "assay": "ITC"}
{"binder": "LQRELKELALEEERLIQELEDVEKNRKVVAENLEKVQAEAERLDQEEAQY (domain or fragment)", "note": "[Beclin 1 CC1 (N-terminal half of the Beclin 1 coiled-coil domain, residues 178–227)]", "values": [{"measurement": "Kd", "result": "~29.3", "unit": "µM"}]}
